Laboratory results as given in paper PMC7004151, “Synthesis and Structure‐Activity Relationships of N‐(4‐Benzamidino)‐Oxazolidinones: Potent and Selective Inhibitors of Kallikrein‐Related Peptidase 6” (Chemmedchem, 2019).

Legend:
[1] = target: KLK6 (Homo sapiens, UniProt Q92876); assay: KLK6 enzymatic inhibition assay (fluorogenic Boc-Phe-Ser-Arg-AMC substrate); format: biochemical; parameters: made in house; details: LipE=pIC50 – logP (KLK6 pIC50, ALogP)
Protocol: Using our previously published KLK6 assay format,21 we performed a HTS with the European Lead Factory (ELF),22 and tested ∼350,000 substances at 10 μM for their ability to reduce KLK6‐catalyzed hydrolysis of the fluorogenic Boc‐Phe‐Ser‐Arg‐AMC peptide.
High Throughput Screen: The European Lead Factory library of ∼350,000 compounds was used for high throughput screening at the Pivot Park Screening Center facilities in Oss, The Netherlands. […] For SPR, Biacore T200 was used and KLK6 was immobilized onto a CM5 chip. […] An 8 point 1 in 3 dilution series of 1 (50 μM to 0.02 μM) was also applied at the beginning and end of each screening day.
Enzyme inhibition assays: All chemicals were purchased from Sigma Aldrich (Gillingham, UK) unless otherwise stated.

[2] = target: T1, Human trypsin (Homo sapiens, UniProt P07477); assay: Trypsin enzyme inhibition assay; format: biochemical; details: KLK6 over trypsin
T1 construct: purchased Polymun Scientific
Protocol: Human thrombin was purchased from Biopur. Human trypsin was purchased from Polymun Scientific. Human Factor Xa was purchased from Enzo Life Sciences. […] Fluorescence intensity was then read at ex/em 485/535 following incubation for 1 h at room temperature (thrombin and factor Xa) or 20 min (trypsin).

`CC[C@H](NC(=O)[C@H]1CN(c2ccc(C(=N)N)cc2)C(=O)O1)c1cccc2ccccc12` [Compound 32, (5R)‐3‐(4‐carbamimidoylphenyl)‐N‐((S)‐1‐(naphthalen‐1‐yl)propyl)‐2‐oxooxazolidine‐5‐carboxamide] was tested, and the LipE [1] was 5.34 and the selectivity against trypsin [2] was “over 25 fold”.
